According to patent publication US20260193344A1 (H LUNDBECK A S, published 2026):
Numbering of substitutions follows the chain as printed.

T1: human ACTH 1-39 (human, N-terminal biotin in the ELISA and HTRF binding assays (p-1487, p-1488); 125I on Tyr23 in Example 9 (p-1542); unlabelled in SPR. Letters unchanged.)
T1 peptide: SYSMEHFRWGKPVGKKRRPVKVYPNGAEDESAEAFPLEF

T2: human alpha-MSH (ACTH 1-13) (human)
T2 peptide: SYSMEHFRWGKPV

B1: Ab15.H (antibody, human IgG1, kappa, N297A, V domains shown)
VH: QQQLVESGGGLVQPGGSLRLSCAASGFTVSDTYDMCWVRQAPGKGLEWIGCIDTGSGDTYYPTSAKGRFTISRDNSKNTLYLQMNSLRAEDTAVYYCAKGVSSLWGQGTLVTVSS
VL: DIQMTQSPSTLSASVGDRVTITCQASEDIESDLAWYQQKPGKAPKLLIYGASTLKSGVPSRFSGSGSGTEYTLTISSLQPDDFATYYCQTYYDMADDGASFGGGTKVEIKR
B2: Ab13.H (antibody, human IgG1, kappa, N297A, V domains shown)
VH: EVQLVESGGGLVQPGGSLRLSCAASGFTVSSGYDICWVRQAPGKGLEWIGCIDTGSGNTYYASSAKGRFTMSRDNSKNTVYLQMNSLRAEDTAVYYCAKGISSIWGQGTLVTVSS
VL: B1 VL with E27Q, D28T, E30S, G50A, T53K, K55T, Y71F, M94I, A95I, S100T
B3: Ab17.H (antibody, human IgG1, kappa, N297A, V domains shown)
VH: B2 VH with E1Q, V2Q, M71I, V80L, I104L
VL: B1 VL with E27Q, D28T, E30S, G50A, T53K, K55T, Y71F, M94I, A95S, S100T
B4: Ab13 (antibody, human IgG1, kappa, N297A, V domains shown)
VH: QQLEESGGGLVKPGGTLTLTCTASGFSFSSGYDICWARQGPGKGLEWIGCIDTGSGNTYYASWAKGRFTMSRTSSTTVTLQVTSLTAADTATYFCAKGISSIWGPGTLVTVSS
VL: DIVMTQTPASVSEPVGGTVTIKCQASQTISSDLAWYQQKPGQPPKLLIYAASKLTSGVSSRFKGGGTGTQFTLTISDLECADAATYYCQTYYDIIDDGCTFGGGTEVVVKR
B5: Ab17 (antibody, human IgG1, kappa, N297A, V domains shown)
VH: QQQLEESGGGLVKPGGTLTLTCKASGFSFSSGYDICWARQGPGKGLEWIGCIDTGSGNTYYASWAKGRFTISRTSSTTVTLQMTSLTAADTATYFCAKGISSLWGPGTLVTVSS
VL: B4 VL with I95S
B6: Ab15 (antibody, human IgG1, kappa, N297A, V domains shown)
VH: QQQLEESGGGLVKPGGTLTLTCKGSGIAFSDTYDMCWVRQAPGKGLEWIGCIDTGSGDTYYPTWAKGRFTISKPSSTTVDLKMTSLTAADTATYFCAKGVSSLWGQGTLVTVSS
VL: DIVMTQTPASVSEPVGGTVTIKCQASEDIESDLAWYQQKPGQPPKLLIYGASTLKSGVSSRFRGSGSGTEYTLTISDLECADAATYYCQTYYDMADDGCSFGGGTEVVVKR

Target: T1, human ACTH 1-39
Experiment: cell-based or functional assay

Binder	IC50, ACTH-induced cAMP, MC2R cells [nM]
B1	0.6
B2	0.1
B3	0.37
B4	0.2
B5	0.48
B6	0.14

Target: T1, human ACTH 1-39
Experiment: cell-based or functional assay
Remark: another data set of the same source

Binder	IC50, ACTH-induced cAMP reporter, MC1R cells [nM]
B1	2.1
B3	1.56
B5	2.56
B6	2.11

Target: T1, human ACTH 1-39
Experiment: cell-based or functional assay
Remark: another data set of the same source

Binder	IC50, ACTH-induced cAMP, MC3R cells [nM]	IC50, ACTH-induced cAMP, MC4R cells [nM]	IC50, ACTH-induced cAMP, MC5R cells [nM]
B1	131	79.5	4300
B3	110	81.6	4000
B4	141	71.4	4700
B5	139	94.4	5900
B6	136	93.9	6100

Target: T1, human ACTH 1-39
Experiment: cell-based or functional assay
Remark: another data set of the same source

Binder	IC50, ACTH-induced cortisol, Y1 cells [nM]
B1	3.83
B2	1.91
B3	4.3
B5	4.47
B6	1.84

Target: T1, human ACTH 1-39
Experiment: SPR (ProteOn XPR36), antibody immobilized

Binder	Kd [nM]	koff [s⁻¹]	kon [M⁻¹ s⁻¹]
B1	0.16	0.00016	1e+06
B2	0.076	6.8e-05	900000
B3	0.17	0.00014	820000
B4	0.083	8.3e-05	1e+06
B5	0.33	0.00025	760000
B6	0.088	7.2e-05	830000

Target: T2, human alpha-MSH (ACTH 1-13)
Experiment: SPR (ProteOn XPR36), antibody immobilized

Binder	koff [s⁻¹]
B1	> 0.1
B2	> 0.1
B3	> 0.1
B4	> 0.1
B5	> 0.1
B6	> 0.1

Target: T1, human ACTH 1-39
Experiment: ELISA, biotin-huACTH 1-39 on neutravidin plate

Binder	EC50 [nM]
B4	1.04
B5	0.81
B6	0.9
